Molecular target: T1, Gastrin/cholecystokinin type B receptor (Rattus norvegicus, UniProt P30553)
T1 sequence (P30553 whole entry): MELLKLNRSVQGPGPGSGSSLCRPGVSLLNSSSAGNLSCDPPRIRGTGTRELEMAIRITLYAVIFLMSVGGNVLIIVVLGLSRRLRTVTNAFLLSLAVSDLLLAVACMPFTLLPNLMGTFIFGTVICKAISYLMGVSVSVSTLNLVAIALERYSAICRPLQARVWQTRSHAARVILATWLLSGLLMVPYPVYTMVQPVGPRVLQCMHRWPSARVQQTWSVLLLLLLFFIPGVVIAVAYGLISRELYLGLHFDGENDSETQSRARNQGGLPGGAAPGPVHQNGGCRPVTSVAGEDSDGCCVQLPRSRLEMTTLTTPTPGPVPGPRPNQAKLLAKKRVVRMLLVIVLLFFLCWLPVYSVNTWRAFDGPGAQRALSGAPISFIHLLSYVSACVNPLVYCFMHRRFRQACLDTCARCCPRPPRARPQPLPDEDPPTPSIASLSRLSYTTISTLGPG
Experiment: Antagonist activity at CCK2 receptor in perfused rat stomach assessed as inhibition of pentagastrin-stimulated gastric acid secretion
Type: functional, tissue-based
Settings: read-out: pA2 (converted)

Cc1ccccc1C(=O)CN1C(=O)N(CC(=O)Nc2cccc(C(=O)O)c2)N=C(C2CCCCC2)c2ccccc21
Kb: 7.59 nM

Source: ChEMBL document CHEMBL1145380, “Optimization of 1,3,4-benzotriazepine-based CCK(2) antagonists to obtain potent, orally active inhibitors of gastrin-mediated gastric acid secretion” (J Med Chem, 2007)
